Measured values from patent US20250382588A1, “CHIMERIC AAV AND USES THEREOF” (priority 2023, published 2025).

Assays:
c-Fos+ cells in the SNr = test: c-Fos staining in the SNr after CNO; type: in vivo, mice; details: AAV8R12-G88P7-rM3Ds-2A-EYFP; intraperitoneal CNO
[1] = tested on: retrogradely labeled D1-MSNs; test: Striatal slice whole-cell recordings of retrogradely labeled MSNs; type: cell-based, mice; details: AAV8R12-G88P7-rM3Ds-2A-EYFP; CNO 10 μM
From the text: Mice from different groups were anesthetized with […] isoflurane, and then decapitated. The brain was quickly extracted and placed in ice-cold N-methyl-D-glucamine (NMDG) cutting solution containing (in mM): 92 NMDG, 2.5 KCl, 25 NaHCO3, 1.25 NaH2PO4, 4.5 D-Glucose, 20 HEPES, 5 L-ascorbic acid, 3 Na-pyruvate, 2 Thiourea, 10 MgSO4, 0.5 CaCl2). The pH was adjusted to 7.2±0.1 using HCl and the osmolarity was adjusted to 305±5 mosmol/L using NMDG. The solution was bubbled with 95% O2/5% CO2 prior to use. Coronal striatum slices were cut in 250-[…] thickness with a vibratome slicer (Leica, VT1200 S), and then incubated in artificial cerebrospinal fluid (aCSF) saturated with 95% O2/5% CO2 for at least 45 min at 37° C. before recording. The aCSF contains (in mM) 125 NaCl, 1.25 KCl, 25 NaHCO3, 1.25 KH2PO4, 25 D-Glucose, 2 CaCl2) and 1 MgCl2, supplemented with 2 mM Na-pyruvate, 3 mM Myo-inositol and 0.4 mM L-ascorbic acid.
The acute striatum slice was transferred to the recording chamber with a constant perfusion of oxygenized aCSF at the rate of 3 ml/min. Neurons were visualized using an upright microscope (Olympus, BX-51) with a 40× water immersion objective at room temperature (˜25° C.). […] Neurons were quickly visualized under fluorescence microscope and then patch clamp were achieved under infrared light illumination and CCD camera. […]

rM3Ds = target: T1, rM3Ds (Rattus norvegicus, UniProt P08483, A177S/A238G/A489L/DEL261-437/DEL441-478/E258S/I253V/I483M/INS256[…]/K178L/K182A/K255R/K484R/K486H/L173F/L482A/M480V/R171S/R176Q/R179M/S481M/T174R/T181R/T257A/Y148C); test: Open field and rotarod tests in 6-OHDA parkinsonian mice; type: in vivo; details: AAV8R12-G88P7-rM3Ds-2A-EYFP
T1 sequence (P08483 with tags, fused parts or gaps Y148C/R171S/L173F/T174R/R176Q/A177S/K178L/R179M/T181R/K182A/A238G/I253V/K255R/INS256[…]/T257A/E258S/DEL261-437/DEL441-478/M480V/S481M/L482A/I483M/K484R/K486H/A489L): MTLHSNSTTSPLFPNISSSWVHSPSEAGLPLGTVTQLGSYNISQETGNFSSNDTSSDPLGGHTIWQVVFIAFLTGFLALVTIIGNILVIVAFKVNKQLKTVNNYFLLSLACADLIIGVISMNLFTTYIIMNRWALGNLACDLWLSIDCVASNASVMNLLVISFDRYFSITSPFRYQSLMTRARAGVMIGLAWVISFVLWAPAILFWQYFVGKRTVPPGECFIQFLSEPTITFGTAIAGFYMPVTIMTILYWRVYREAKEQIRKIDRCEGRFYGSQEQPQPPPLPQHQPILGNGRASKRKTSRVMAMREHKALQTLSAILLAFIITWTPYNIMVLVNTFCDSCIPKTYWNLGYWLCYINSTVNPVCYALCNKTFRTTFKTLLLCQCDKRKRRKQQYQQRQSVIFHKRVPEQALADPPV
Experimental: Rodent Parkinson's disease mice models were created through bilateral injection of 6-OHDA using the same methods as described in virus injections (Example 3). A total volume of 1 ul 6-OHDA (5 mg/ml, dissolved in sterile saline containing 0.02% ascorbic acid, Sigma) was injected into the striatum at a speed of 100 nL/min. The coordinates for striatum were 0.5 mm anterior, 1.5 mm lateral, 3.2 mm ventral to the bregma. A premedication of desipramine (25 mg/kg, Sigma) was administered to animals prior to injections of 6-OHDA, in order to increase the selectivity and efficacy of 6-OHDA-induced lesions. Mice were supplemented with DietGel (ClearH2O) for one-week post-surgery. All staining and behavioral experiments were performed at least 14 days following surgery, when the amount of dopamine depletion was maximal and stable.
6-OHDA was administered bilaterally into the striatum (FIG. 13A).
6-OHDA was bilaterally injected using the same methods described for virus injections. […]
Mice were individually handled for 10-20 seconds per day for at least 5 days to habituate them to the experimenter. […] The behavioral data were analyzed with ANY-maze software (Stoelting Co.).
Mice were individually handled as described in the open field test. […] Latency to fall for each trial was automatically recorded by the apparatus. […]

C[N+]1([O-])CCN(C2=Nc3cc(Cl)ccc3Nc3ccccc32)CC1 [CNO, clozapine N-oxide] was tested, and the “number of c-Fos+ cells in the SNr” value (c-Fos+ cells in the SNr) was “didn't increase the number of c-Fos+ cells”, the “excitability of labeled striatal MSNs” value [1] was “enhancement in the excitability” and the “motor skill in rotor-rod/rotarod test” value (rM3Ds; CNO) was “partially rescued the motor skill deficit”. For the same compound, the “spontaneous movement in an open field” value (rM3Ds; systemic CNO) was “drastically reversed the dyskinesia-like phenotype”.
